IL-2 act = activates IL-2 in a cell-based reporter assay; activation, % (series mostly up to about 46 µM); IL-2 activation reporter assay, cell-based qHTS; stimulated with anti-CD3/CD4/CD28 beads; in transgenic mouse T cells; 360,000 tested, 0.065% active; AID 652025; in the data active = activation above about 50%; inconclusive = mostly about 30% to 49%; note: 0% is about no effect
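Screening format: compound pinned onto unstimulated transgenic mouse T cells, 60 min incubation, then anti-CD3/anti-CD4/anti-CD28 bead stimulation for 18 hours at 37 degrees C, followed by EGFP and DsRed detection.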
A549 tox = A549 cytotoxicity, counter-screen for Nrf2 inhibitors; AID 504648; Potency, µM (titrated, usually from 46 µM), inactives show top-dose activity change, negative = cytotoxicity, hits mostly inhibitors; 390,000 tested, 0.16% active; A549 ARE-Fluc cells, CellTiter-Fluor viability, 18-24 h; note: potency is the fitted concentration of half-maximal effect; % is set by controls: 0 for no effect and ±100 for the full control effect
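Cytotoxicity counterscreen: CellTiter-Fluor fluorescence was measured in A549 ARE_Fluc cells after 18-24 h of compound exposure in a concentration series. The subsequent BugLite luminescent read reports ARE-luciferase activity.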
Nrf2 activator = Nrf2 pathway activation; AREc32 ARE-luciferase reporter (MCF7-derived line), luminescence, 24 h; Potency, µM (series often up to 46.1 µM), without a hit: at the highest dose activation, most hits filed as activators; 410,000 tested, 0.31% active; note: potency is the fitted concentration of half-maximal effect; % of control where 0% means no effect; nearly all actives have a fitted effect of over 65% in size
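AREc32 cells carrying an ARE-driven firefly luciferase reporter were seeded at 1000 cells/well in OPTI-MEM with 5% FBS, then exposed to compound for 24 hr at 37 deg C. Luminescence was read with Steady-Glo after 30 min at RT.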
Nrf2 inh = blocks Nrf2 signaling; 360,000 tested, 2.1% active; A549 ARE-Fluc reporter, luciferase luminescence, 18-24 h; Potency, µM (doses to about 46 µM), for the others: at the highest dose activity change, negative = inhibition, most hits filed as inhibitors; AID 504444; note: potency is the fitted concentration of half-maximal effect; % is set by controls: 0 for no effect and ±100 for the full control effect; nearly all actives have a fitted effect of over 60% in size
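Two sequential reads on A549 ARE_Fluc cells exposed to compound for 18-24 h: a CellTiter-Fluor fluorescence read for viability, then a luciferase luminescence read for Nrf2/ARE activity.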
ClpP mod = qHTS Assay for Activators of ClpP; 340,000 tested, 1.9% active; purified B. subtilis ClpP, FRET peptide cleavage, 20 min; Potency, µM (titrated, usually from 57.5 µM), for inactives: top-dose activity change, negative = active; ATP-dependent Clp protease proteolytic subunit (Bacillus subtilis (strain 168)), P80244; AID 651965, 2013; active = well fitted falling curve with a large enough effect; inconclusive = small, poorly fitted or top-dose-only effect; inactive = no such curve, though single readings can be large or run the other way; note: potency is the fitted concentration of half-maximal effect; the source files actives as falling curves though it sought activators and does not explain the sign; nearly all actives have a fitted effect of over 65% in size
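ClpP 10 microg/mL final, pH 8 Tris/KCl buffer with BSA, glycerol, Tween-20; compound pinned in; FRET-FV substrate; RT 20 min; Ex320/Em430; ΔFRET vs ADEP 5.8 microM, DMSO, no enzyme.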
miR-21 reporter = raises the signal of a miR-21 reporter | HeLa miR-21 FLuc reporter, luciferase, 48 h | Potency, µM (doses to about 38.3 µM), for the others: at the highest dose reporter change, positive = more light | 340,000 tested, under 10 active | AID 2288; active = well fitted rising curve with a large enough effect; inconclusive = small, poorly fitted or top-dose-only effect; inactive = no such curve, though single readings can be large or run the other way;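 also: % of control where 0% means no effect; miR-21 action dims this reporter so a rising signal means less miR-21 action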
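Compounds were titrated across several concentrations (up to approximately 40 uM) and incubated 48 hours with HeLa miR-21-FLuc reporter cells (miR-21 target sequence downstream of FLuc, endogenous miR-21). Readout was firefly luciferase luminescence after lytic detection reagent.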
* = called active by the depositor; ? = inconclusive; . = no result given; [ ] = dose if it differs, or a comment. An excerpt weighted towards active compounds, which were near 3.7% of everything screened. Unless noted, calls come from the whole dose curve; as a rule, active = well fitted curve in the direction sought with a large enough effect; inconclusive = small, poorly fitted or top-dose-only effect, or another doubt; inactive = no such curve, though single readings can be large; an effect the other way counts as inactive or inconclusive.

1: CN(Cc1ccc(Cl)c(Cl)c1)C(=O)C1=CC=CN2CCS(=O)(=O)N=C12
2: CC(NC(=O)C1=CC=CN2CCS(=O)(=O)N=C12)c1ccc(Cl)cc1Cl (centres undefined)
3: COc1ccc(Br)cc1CN(C)C(=O)C1=CC=CN2CCS(=O)(=O)N=C12
4: COc1ccc(Br)cc1CN(C)C(=O)c1ccncc1
5: CC(C)CN(CC(C)C)c1ccc(/C=C/c2nc3ccccc3s2)cc1
6: Cc1ccc(S(=O)(=O)c2nc(S(C)(=O)=O)sc2NCc2ccccc2)cc1
screen / no.,1,2,3,4,5,6
ClpP mod,5%,25µM*,-17%,1%,-3%,-2%
Nrf2 activator,0%,0%,0%,0%,.,1%
Nrf2 inh,8.2µM*,-4%,16µM*,1%,.,-23%
IL-2 act,1,0,-2,-1,.,.
A549 tox,-4%,-6%,-11%,2%,.,6%
miR-21 reporter,.,.,.,-14%,.,1%

7: CCn1c(SCC(=O)Nc2cc(C)ccc2F)nnc1-c1ccccc1O
8: COC(=O)c1cccc(NC(=O)NC(=O)c2ccc(Cl)cc2)c1
9: COC(=O)c1cccc(NC(=O)Nc2ccc(Cl)cc2)c1
10: C=CCSc1nc(C)cc(/C=C\c2ccccc2)c1C#N
11: COc1ccc(NC(=O)C(NS(=O)(=O)c2cccc3nsnc23)c2ccccc2)cc1 (centres undefined)
12: Cc1cc(C)nc(SCC(=O)NCC2COc3ccccc3O2)n1 (centres undefined)
screen / no.,7,8,9,10,11,12
ClpP mod,0%,.,.,28µM*,-2%,-1%
Nrf2 activator,3%,0%,2%,0%,-1%,0%
Nrf2 inh,-13%,10µM*,-17%,-12%,-6%,17%
IL-2 act,.,-1,-2,-2,.,1
A549 tox,-6%,-21%,-9%,1%,12%,1%
miR-21 reporter,-13%,-23%,-31%,-2%,1%,.

13: Cc1nc(SCC(=O)NCC2COc3ccccc3O2)c2c(C)c(C)sc2n1 (centres undefined)
14: COc1ccc(Cl)cc1NC(=O)NCCc1c(C)nn(C)c1C
15: Cc1cccc(C(=O)Nc2cc3nn(-c4ccc(C(C)C)cc4)nc3cc2C)c1
16: O=C(Nc1ccc([N+](=O)[O-])cc1)C(Cc1ccccc1)N1C(=O)c2cccc3cccc(c23)C1=O (centres undefined)
17: O=C(Nc1ccccc1)C(Cc1ccccc1)N1Cc2ccccc2C1=O (centres undefined)
18: Fc1cccc(Cl)c1/C=C/c1cnc2ccccc2n1
screen / no.,13,14,15,16,17,18
ClpP mod,.,0%,10µM*,.,1%,-1%
Nrf2 activator,0%,-1%,-1%,3%[9.22 µM],-1%,3.5µM*
Nrf2 inh,21µM*,.,6%,-20%,-3%,?
IL-2 act,0,.,.,160*,.,0
A549 tox,1%,1%,0%,-8%,1%,2%
miR-21 reporter,.,-11%,-6%,-6%,-4%,-55%

Another view of part of the listing above:
[17] O=C(Nc1ccccc1)C(Cc1ccccc1)N1Cc2ccccc2C1=O (centres undefined)
  ClpP mod = 1%	Nrf2 activator = -1%	Nrf2 inh = -3%	IL-2 act = .	A549 tox = 1%	miR-21 reporter = -4%

[18] Fc1cccc(Cl)c1/C=C/c1cnc2ccccc2n1
  ClpP mod = -1%	Nrf2 activator = 3.5µM*	Nrf2 inh = ?	IL-2 act = 0	A549 tox = 2%	miR-21 reporter = -55%

Further structures.
19: COc1ccc(CCN2C(=O)C3C4C=CC(C3C2=O)C2C(=O)N(CCc3ccc(OC)c(OC)c3)C(=O)C42)cc1OC (centres undefined)
20: COc1ccc(CCN2C(=O)C3C4C=CC(C5CC45)C3C2=O)cc1OC (centres undefined)
21: COc1cc(NC(=O)Cn2c(=O)n(Cc3ccco3)c(=O)c3sc4ccccc4c32)cc(OC)c1
22: COc1ccc(C=O)cc1OS(=O)(=O)c1ccc(NC(C)=O)cc1
23: COc1ccc(/C=N/NC(=O)c2ccc3ccccc3c2)cc1OS(=O)(=O)c1ccc(NC(C)=O)cc1
24: COc1cc(C(=O)Nc2nc3c(s2)Cc2c(Br)ccc(OC)c2-3)cc(OC)c1OC
screen / no.,19,20,21,22,23,24
ClpP mod,1.8µM*,-13%,-22%,.,?,-3%
Nrf2 activator,0%,-1%,7%,0%,0%,0%
Nrf2 inh,?,-14%,10%,10%,12µM*,?
IL-2 act,0,1,.,3,-2,.
A549 tox,-8%,-8%,2%,10%,-28%,-16%
miR-21 reporter,10%,5%,3%,12%,27%,2%

Part of the list above with just miR-21 reporter, IL-2 act and A549 tox.
No.	SMILES	miR-21 reporter	IL-2 act	A549 tox
18	Fc1cccc(Cl)c1/C=C/c1cnc2ccccc2n1	-55%	0	2%
3	COc1ccc(Br)cc1CN(C)C(=O)C1=CC=CN2CCS(=O)(=O)N=C12	.	-2	-11%
10	C=CCSc1nc(C)cc(/C=C\c2ccccc2)c1C#N	-2%	-2	1%
17	O=C(Nc1ccccc1)C(Cc1ccccc1)N1Cc2ccccc2C1=O (centres undefined)	-4%	.	1%

New compounds follow:
25: CCOC(=O)Cn1nc(C)c(NC(=O)COc2ccc(Cl)cc2C)c1C
26: Cc1ccccc1N1CC(c2nc3ccccc3n2CCC2CCCCC2)CC1=O (centres undefined)
27: Cc1ccc(-n2nc3c(c2NC(=O)c2ccc(F)c(F)c2)CS(=O)(=O)C3)cc1
28: CC1(C)CC(N2CCN(Cc3ccccc3)CC2)=CC(=[N+]2CCCCC2)C1
29: CC(=O)Nc1cccc(NC(=O)CN2C(=O)CCSc3ccccc32)c1
30: CCc1cc2c(=O)c(-c3nc(C)cs3)coc2cc1OC(C)C(=O)NCCO (centres undefined)
screen / no.,25,26,27,28,29,30
ClpP mod,0%,0%,28µM*,.,0%,.
Nrf2 activator,4%,-4%,0%,-1%,0%,0%
Nrf2 inh,23µM*,23µM*,8%,18µM*,-7%,13µM*
IL-2 act,.,.,-5,-6,.,0
A549 tox,-2%,-2%,3%,-19%,7%,-1%
miR-21 reporter,15%,8%,-2%,?,8%,-3%

31: CN1C(=O)c2ccccc2Sc2ccc(NC(=O)N3CCN(c4ccccc4)CC3)cc21
32: COC(=O)c1c(NC(=O)/C=C/c2ccco2)sc2c1CCC2
33: CC(C)OC(=O)c1c(NC(=O)c2ccco2)sc2c1CCCCC2
34: Cc1sc(NC(=O)c2ccco2)c(CN2CCCCC2)c1C
35: COC(=O)c1c(NC(=O)c2ccc(C)o2)sc2c1CCCCC2
36: CN(C)c1ccc(/C=C/c2sc3ccccc3[n+]2CCCCI)cc1
screen / no.,31,32,33,34,35,36
ClpP mod,-4%,-2%,28µM*,2%,32µM*,1%
Nrf2 activator,0%,1.4µM*,8%,8.9µM*,21%,.
Nrf2 inh,-15%,16%,0%,18%,?,.
IL-2 act,.,13,0,-2,0,.
A549 tox,5%,1%,-9%,9%,7%,.
miR-21 reporter,-5%,-1%,-15%,-18%,-41%,.

37: O=C(Nc1ccc(Br)cc1F)C1CCN(c2nc3ccccc3[nH]2)CC1
38: COC(=O)c1c(NC(=O)c2c(C)noc2C)sc2c1CCCCCC2
39: COC(=O)c1c(NC(=O)c2c(-c3ccccc3Cl)noc2C)sc2c1CCC2
40: CCOC(=O)c1c(-c2ccc(Cl)cc2)cn2ccccc12
41: Cc1ccc(-c2nc3ccccn3c2Nc2ccccc2C)o1
42: COC(=O)c1[nH]c2cccc(OC)c2c1NC(=O)CN(C)CC1OCCO1
43: COC(=O)c1[nH]c2cccc(OC)c2c1NC(=O)CN1CCOCC1
44: CC(=O)Nc1ccc(NC(=O)C2(c3cccs3)CCOCC2)cc1
screen / no.,37,38,39,40,41,42,43,44
ClpP mod,2%,.,32µM*,32µM*,4%,32µM*,18µM*,0%
Nrf2 activator,5%,.,0%,1%,.,0%,4%,0%
Nrf2 inh,.,.,?,.,?,2%,0%,.
IL-2 act,.,.,-3,1,.,-1,0,.
A549 tox,0%,.,-2%,8%,6%,-8%,3%,11%
miR-21 reporter,2%,-1%,-2%,0%,.,-4%,-7%,-8%

Screening data as filed in PubChem BioAssay.
